Laboratory results reported in patent publication US9814918B2, “Microbial deactivation of explosive compositions” (dated 2017).

The compounds below were run on Gibberella moniliformis CD611 (assay: Induction of nitroglycerin-degrading activity in Gibberella moniliformis CD611). Conditions: 0.5 mM TNT, 0.5 mM NEM, 0.25 mM MD, 1 mM 3HC; 29 h.

Compound | growth of G. moniliformis CD611 in the presence of the compound
O=c1oc2ccccc2cc1O | Growth was inhibited
CC1=CC(=O)c2ccccc2C1=O | Growth was inhibited
CCN1C(=O)C=CC1=O | Growth was inhibited
